Data as given in patent US7189859B2, “Radiolabelled phenylethyl imidazole carboxylic acid ester derivatives” (priority 2003, dated 2007).

Legend:
[1] = target: T1, rat adrenal membranes (cytochrome P-450 β-hydroxylase) (Rattus norvegicus, UniProt P15393); assay: [^131I]MTO binding to rat adrenal membranes (association, dissociation, saturation); conditions: saturation analysis, 2–100 nM 4-iodo-MTO carrier, 30 minutes incubation, pH 7.1; (15)
T1 sequence (P15393 25-499): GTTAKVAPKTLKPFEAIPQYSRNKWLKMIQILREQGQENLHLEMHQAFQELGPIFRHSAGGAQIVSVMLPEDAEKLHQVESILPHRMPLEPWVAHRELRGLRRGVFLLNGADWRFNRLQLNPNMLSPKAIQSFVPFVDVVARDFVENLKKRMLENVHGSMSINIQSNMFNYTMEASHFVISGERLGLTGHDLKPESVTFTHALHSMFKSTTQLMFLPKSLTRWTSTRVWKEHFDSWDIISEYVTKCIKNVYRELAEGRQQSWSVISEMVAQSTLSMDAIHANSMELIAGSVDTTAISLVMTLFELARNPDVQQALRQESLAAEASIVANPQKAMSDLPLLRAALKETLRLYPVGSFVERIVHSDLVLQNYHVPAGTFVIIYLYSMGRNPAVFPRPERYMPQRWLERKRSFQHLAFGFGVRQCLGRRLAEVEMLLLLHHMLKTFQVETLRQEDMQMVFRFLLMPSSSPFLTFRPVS
Description: Whole adrenals from adult male Wistar rats were homogenized in 10 mM K2HPO4/10 mM HEPES (pH 7.1) with a glass/teflon piston (Potter-type). The homogenate was centrifuged at 35.000×g for 10 min, the pellet was resuspended in fresh buffer and centrifuged again. Membranes were washed 2 more times and stored as aliquots at −80° C.
After incubation, membranes with bound radioligand were isolated by filtration through Whatman GF/B glass fiber filters (presoaked in buffer), followed by 2×4 mL washings with buffer, then filters were measured in a gamma-spectrometer.
For dissociation experiments, membranes were fully equilibrated with 2 nM radioligand, and the dissociation was initiated by the addition of excess unlabelled 4-iodo-MTO and stepwise filtration at 15 sec intervals.
For saturation studies 2–100 nM 4-iodo-MTO carrier was used. See summary in FIG. 1. […] Incubation for 30 minutes using 10 mM K2HPO4/10 mM HEPES, 150 mM NaCl (pH 7.1).

adrenals = assay: In vivo evaluation of ^131I-MTO (organ distribution after tail vein injection); conditions: rats, intravenous (tail vein)
Description: Method: ^131I-MTO was used with a radiochemical purity >99% and a specific activity of 57 GBq/μmol. The radiotracer (0.5–1.1 MBq; […]) was injected into the tail vein of rats (female, 180–220 gram). Groups of four rats were sacrifized at specified times up to 24 hours post injection. The organs were excised and weighed, the radioactivity was measured at constant geometry using a gamma-spectrometer with a Nal(TI)-crystal. The data were expressed as percent of injected dose (ID) per organ and as percent of ID per gram tissue.

Question: `COC(=O)c1cncn1[C@H](C)c1ccc([131I])cc1` [[^131I]MTO, (R)-3-[1-(4-[^131I]iodophenyl)ethyl]-3H-imidazole-4-carboxylic acid methyl ester] was tested. Which Bmax [1] did it give?
Answer: 2.4±0.4 pmol/mg tissue

Question: What about the “time of highest contrast for imaging of the adrenals (target-to-non-target-ratios)” value (adrenals) of the same compound?
Answer: up to one hour post injection
